Measurements published in patent US9879094B2, “Nucleic acid molecules encoding for BACE1 antibodies” (Genentech, Inc., priority 2010, dated 2018).

Protein sequences, listed by entry. Tags and fused reporters are not part of them. Residues count along the entry.
UniProt P56817, 22-457: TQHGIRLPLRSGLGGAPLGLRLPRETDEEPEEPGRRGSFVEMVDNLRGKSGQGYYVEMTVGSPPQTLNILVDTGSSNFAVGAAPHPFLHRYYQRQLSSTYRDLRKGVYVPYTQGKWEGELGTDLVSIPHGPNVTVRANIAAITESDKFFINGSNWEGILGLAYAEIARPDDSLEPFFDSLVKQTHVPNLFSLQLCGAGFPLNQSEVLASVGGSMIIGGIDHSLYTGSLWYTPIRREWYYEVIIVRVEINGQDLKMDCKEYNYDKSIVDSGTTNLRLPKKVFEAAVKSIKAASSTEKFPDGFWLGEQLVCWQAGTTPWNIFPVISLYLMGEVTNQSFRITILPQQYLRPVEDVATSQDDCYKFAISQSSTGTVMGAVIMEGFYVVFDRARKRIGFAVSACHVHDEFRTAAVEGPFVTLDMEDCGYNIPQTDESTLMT

Molecular target: BACE1 (Homo sapiens, UniProt P56817)
Test: HTRF BACE1 enzyme activity assay (long peptide Bi27)
Format: biochemical
Description: The HTRF assay was performed as follows. […] The proteolytic reaction mixture was incubated at ambient temperature for 75 minutes and was quenched by the addition of 5 μL HTRF detection mixture containing 2 nM Streptavidin-D2 and 150 nM of 6E10 anti-amyloid beta antibody (Covance, Emoryville, Calif.) labeled with Europium cryptate in detection buffer (200 mM Tris pH 8.0, 20 mM EDTA, 0.1% BSA, and 0.8M KF). The final reaction mixture was incubated at ambient temperature for 60 minutes and the TR-FRET signal was measured using an EnVision Multilabel Plate Reader™ (Perkin-Elmer) at an excitation wavelength of 320 nm and emission wavelengths of 615 and 665 nm. Reactions lacking BACE1 enzyme (0 BACE) and reactions containing lacking anti-BACE1 antibodies (PBS (100% BACE1 Activity) were used as controls.
Fab proteins of 6 clones were purified and subjected for HTRF enzyme activity assay, as described above.
The affinity matured YW412.8.31 anti-BACE1 antibody was tested in a HTRF assay as described in Example 1. […] The resulting fluorogenic products from the control reactions were measured as above, but at an excitation wavelength of 545 nm and an emission wavelength of 585 nm. Obtained data were analyzed using GraphPad Prism 5™ (LaJolla, Calif.).

| Molecule | improvement in inhibition activity (affinity improved derivatives of Fab 12) | inhibition activity compared to parent Fab (purified affinity matured Fabs) |
| --- | --- | --- |
| LC10 (antibody, V domains shown) VL: DIQMTQSPSSLSASVGDRVTITCRASQSVSSAVAWYQQKPGKAPKLLIWWASSLYSGVPSRFSGSGSGTDFTLTISSLQPEDFATYYCQQYSYSPFTFGQGTKVEIK VH: EISEVQLVESGGGLVQPGGSLRLSCAASGFNFYYSSIHWVRQAPGKGLEWVASISPYSGYTSYADSVKGRFTISADTSKNTAYLQMNSLRAEDTAVYYCARQPTHYYYYAKGYKAMDYWGQGTLVTVSS | approximately 20 fold |  |
| LC11 (antibody, V domains shown) VL: DIQMTQSPSSLSASVGDRVTITCRASQSVSSAVAWYQQKPGKAPKLLIYSASSLYSGVPSRFSGSGSGTDFTLTISSLQPEDFATYYCQQYYPLTFGQGTKVEIK VH: EISEVQLVESGGGLVQPGGSLRLSCAASGFNLSYSYIHWVRQAPGKGLEWVASIYSSYGSTYYADSVKGRFTISADTSKNTAYLQMNSLRAEDTAVYYCARSYHHSDKYYYAWSYALDYWGQGTLVTVSS |  | lost inhibition activity |
